Experimental data taken from the NIST ThermoML archive (doi:10.1016/j.jct.2015.05.014).
Numbers after ± are expanded uncertainties.

Assay: activity coefficient (dimensionless); of the first substance listed, at infinite dilution; xn = mol fraction of the nth substance listed
Details: 100 kPa, Liquid, Chromatography, x1 = 0

CCCCOCCCC [dibutyl ether] + CC(O)C(=O)[O-].CC[N+]1(C)CCCC1
Details | activity coefficient
308.15 K | 142 ± 12
318.15 K | 133 ± 12
328.15 K | 125 ± 11
338.15 K | 118 ± 10
348.15 K | 110 ± 10
358.15 K | 105 ± 9
368.15 K | 98.8 ± 8.6
